The test system of one test is 6-OHDA-lesioned rats. The conditions noted are these: rat, in vivo.
Test [1] deals with E15 rat mesencephalic primary cultures.
Test [2] shares this test system. The source holds these as a separate data set.
The test system is the same in test [3]. The experiment in a line: cells. The conditions noted are these: 20 h, read-out: total cell survival.
In test [4] the test system is transplanted embryonic rat ventral mesencephalic dopamine neurons. The conditions noted are these: in vivo.
In test [5] the test system is TH+ dopamine neurons of E15 rat ventral mesencephalic cultures.
Test [6] relates to TH+ dopamine neurons of E15 rat mesencephalic primary cultures.

SMILES strings stand for the structures. “Also recorded” adds a separate entry of the source.

Data on 1 molecule can be found in US6288089A, “Use of kinase inhibitors for treating neurodegenerative diseases” (priority 1999, dated 2001).

With `O=[N+]([O-])c1ccc(-c2nc(-c3ccc(F)cc3)c(-c3ccncc3)[nH]2)cc1` [PD 169316], in the test with 6-OHDA-lesioned rats, the methamphetamine-induced rotations is 0.07+/-0.09 rpm and the “stopping of methamphetamine-induced rotations” value is reported as “only group to completely stop methamphetamine-induced rotations”. In addition, the “rescue of cells from serum-withdrawal induced death” value in test [1] was “unable to rescue cells”. The “basal apoptosis in cultures supplemented with serum” value in test [2] is given as “no effect”. Besides, in test [3], the viability at 1 µM is 48% and the viability at 10 µM is 80%. Besides, in test [4], the “number of surviving dopamine neurons (TH+ cells) compared to sham-pretreated transplants” value was “nearly doubled” and the “surviving dopamine neurons per transplant” value was 3023+/-585. Also, the “anti-apoptotic effect in dopamine neurons after serum withdrawal” value in test [5] is on record as “fully blocked the increase in the apoptotic nuclear profiles”. Moreover, in test [6], the “morphology of TH+ neurons” value is “restored healthy morphology”; the “protection of dopamine neurons from death by serum withdrawal” value was “highest and complete protection; also recorded: protected all TH+ neurons; also recorded: completely prevented dopamine cell death”; the “survival of TH+ neurons after serum withdrawal, dose dependence” value is given as “protected the TH+ cell population from cell death in a dose dependent manner”; the “survival of dopamine neurons in serum containing cultures” value is given as “no effects”.
